Experimental data from ChEMBL document CHEMBL1133514, “Activation mechanisms of nucleoside phosphoramidate prodrugs” (J Med Chem, 2000).

Columns and labels:
[1] = Rate constants determined using 31P NMR Kinetics experiments at 37 degrees Centigrade
[2] = Half-life period for the compound was determined; format: ADME
How it was run: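 Compound (0.015-0.076 mmol) dissolved in about 90 µL CH3CN or THF, then diluted to 0.50 mL with 0.1-0.4 M cacodylate or acetate buffer; pH 7.4 target (7.0-8.0 accepted), 37 °C. Monitored by 31P NMR every 2.5 min for 30 min, then every 5 min; relative peak areas fitted by least squares to first-order kinetics to give rate constants and t1/2.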

CCN(CC)CC.CN(CCBr)P(=O)(O)OCC1CCCO1 (configuration not stated)
K [1]: 0.34 min⁻¹ | T1/2 [2]: 2 min
